Experimental data published in patent publication US11001838B2, “Platform for screening phosphomevalonate decarboxylase” (The Regents of the University of California, priority 2017, dated 2021).

What was measured:
E. coli DH1 [1] = experiment: Isopentenol production in E. coli via IPP-bypass MVA pathway (GC-FID); format: cell-based, Escherichia coli; settings: for isopentenol titer: 48 hours after induction
[2] = In vitro enzyme kinetics of PMDsc variants (pyruvate kinase/lactate dehydrogenase coupled assay); format: biochemical; settings: for Ki: MVAP up to 100 mM, read-out: KI (substrate inhibition); for kobs: observed turnover number calculated at 100 mM MVAP
E. coli DH1 [3] = experiment: Growth of E. coli DH1 under the screening conditions (MEP pathway blocked by fosmidomycin, IPP-bypass pathway + IPK)
[4] = Table 2, MVAP 0.100-4.0 mM, standard error in brackets
[5] = Table 2, MVAP, standard error in brackets
[6] = Table 2, screening conditions, standard deviation in brackets

| Molecule | isopentenol titer (E. coli DH1 [1]; listed as R74H-M212Q-R147K) [mg/L] | 48 hr Titer (isopentenol) (E. coli DH1 [1]) | isopentenol titer (E. coli DH1 [1]; text and figure legends) | Ki [2] [mM] | kcat [2, 4] | Km [2, 5] [µM] | Km ([2]; Table 3) [µM] | kcat ([2]; Table 3) [s⁻¹] | kobs ([2]; Table 3) [s⁻¹] | Growth rate (E. coli DH1 [3]; [6]) | Growth rate (E. coli DH1 [3]; Table 3) [h⁻¹] | isopentenol titer after 48 hours, fold less than that of R74H-R147K-M212Q (E. coli DH1 [1]; 48 hours) [fold] |
| --- | --- | --- | --- | --- | --- | --- | --- | --- | --- | --- | --- | --- |
| R74H-R147K-M212Q: PMDsc triple mutant (protein) MTVYTASVTAPVNIATLKYWGKRDTKLNLPTNSSISVTLSQDDLRTLTSAATAPEFERDTLWLNGEPHSIDNEHTQNCLRDLRQLRKEMESKDASLPTLSQWKLHIVSENNFPTAAGLASSAAGFAALVSAIAKLYQLPQSTSEISKIARKGSGSACRSLFGGYVAWEMGKAEDGHDSMAVQIADSSDWPQMKACVLVVSDIKKDVSSTQGQQLTVATSELFKERIEHVVPKRFEVMRKAIVEKDFATFAKETMMDSNSFHATCLDSFPPIFYMNDTSKRIISWCHTINQFYGETIVAYTFDAGPNAVLYYLAENESKLFAFIYKLFGSVPGWDKKFTTEQLEAFNHQFESSNFTARELDLELQKDVARVILTQVGSGPQETNESLIDAKTGLPKE | 1079.1 | 1079 (27) mg/L and 1079 mg/L | 1,080±30 mg/L and 1,079 mg/L | 80 | 0.16 (0.02) sec^−1 | 400 | 430 | 0.16 | 0.07 | 0.79 (0.03) hr^−1 | 0.79 |  |
| R74G-R147K-M212Q: PMDsc triple mutant (protein) MTVYTASVTAPVNIATLKYWGKRDTKLNLPTNSSISVTLSQDDLRTLTSAATAPEFERDTLWLNGEPHSIDNEGTQNCLRDLRQLRKEMESKDASLPTLSQWKLHIVSENNFPTAAGLASSAAGFAALVSAIAKLYQLPQSTSEISKIARKGSGSACRSLFGGYVAWEMGKAEDGHDSMAVQIADSSDWPQMKACVLVVSDIKKDVSSTQGQQLTVATSELFKERIEHVVPKRFEVMRKAIVEKDFATFAKETMMDSNSFHATCLDSFPPIFYMNDTSKRIISWCHTINQFYGETIVAYTFDAGPNAVLYYLAENESKLFAFIYKLFGSVPGWDKKFTTEQLEAFNHQFESSNFTARELDLELQKDVARVILTQVGSGPQETNESLIDAKTGLPKE |  | 8 (1) mg/L and 8 mg/L | 8 ± 1 mg/L | 11 | 0.22 (0.04) sec^−1 | 500 | 500 | 0.22 | 0.022 |  |  | 135 |
| I226V: PMDsc mutant I226V (protein) MTVYTASVTAPVNIATLKYWGKRDTKLNLPTNSSISVTLSQDDLRTLTSAATAPEFERDTLWLNGEPHSIDNERTQNCLRDLRQLRKEMESKDASLPTLSQWKLHIVSENNFPTAAGLASSAAGFAALVSAIAKLYQLPQSTSEISRIARKGSGSACRSLFGGYVAWEMGKAEDGHDSMAVQIADSSDWPQMKACVLVVSDIKKDVSSTQGMQLTVATSELFKERVEHVVPKRFEVMRKAIVEKDFATFAKETMMDSNSFHATCLDSFPPIFYMNDTSKRIISWCHTINQFYGETIVAYTFDAGPNAVLYYLAENESKLFAFIYKLFGSVPGWDKKFTTEQLEAFNHQFESSNFTARELDLELQKDVARVILTQVGSGPQETNESLIDAKTGLPKE |  | 633 (53) mg/L |  |  | 0.16 (0.01) sec^−1 | 340 |  |  |  | 0.35 (0.01) hr^−1 |  |  |

“And” between values parts separate entries of the source, which are not always exact repeats. Equal values may be shown once.
